Literature values in patent publication US7919620B2, “Agent for suppressing blood pressure elevation” (Coral Biotech Kabushiki Kaisha, priority 2005, dated 2011).

Key:
[1] = human subjects, cited from earlier work
[2] = rat, delivered into the heart, cited from earlier work
[3] = room temperature, atmospheric pressure; cited from earlier work
[4] = 8 healthy volunteers, cited from earlier work

orthosilicic acid
Absorbed and detected in the blood ([1]; 32Si(OH)4): 36%
Remaining share of the absorbed compound excreted, second phase [1]: 10%
Share of the absorbed compound excreted into urine, first phase [1]: 90%
T1/2 of excretion, second phase (remaining 10%) [1]: 11.3 h
T1/2 of urinary excretion, first phase (90% of absorbed) [1]: 2.7 h
Time after which absorbed Si was completely removed [1]: 48 h
Delivered amount excreted in urine ([2]; within 4 hours): 77±12%
Distribution to the brain [2]: little found in the brain
Protein binding / form present [2]: present mostly in its free form with no proteins bound to it
Concentration at which the compound spontaneously polymerizes [3]: ≥ 2000 µM
Ingested orthosilicic acid absorbed ([4]; aqueous solution 27-55 ppm): 50.3%
Ingested orthosilicic acid absorbed, range (n=8) ([4]; aqueous solution 27-55 ppm): 21.9-74.7%
Renal clearance of Si [4]: 82 to 96 mL/min
